Results on five compounds are retold here after ChEMBL document CHEMBL4613250, “Discovery of 4-((2S,4S)-4-Ethoxy-1-((5-methoxy-7-methyl-1H-indol-4-yl)methyl)piperidin-2-yl)benzoic Acid (LNP023), a Factor B Inhibitor Specifically Designed To Be Applicable to Treating a Diverse Array of Complement Mediated Diseases” (J Med Chem, 2020).

Protein sequences, listed by entry. Tags and fused reporters are not part of them.
UniProt P04186, whole entry: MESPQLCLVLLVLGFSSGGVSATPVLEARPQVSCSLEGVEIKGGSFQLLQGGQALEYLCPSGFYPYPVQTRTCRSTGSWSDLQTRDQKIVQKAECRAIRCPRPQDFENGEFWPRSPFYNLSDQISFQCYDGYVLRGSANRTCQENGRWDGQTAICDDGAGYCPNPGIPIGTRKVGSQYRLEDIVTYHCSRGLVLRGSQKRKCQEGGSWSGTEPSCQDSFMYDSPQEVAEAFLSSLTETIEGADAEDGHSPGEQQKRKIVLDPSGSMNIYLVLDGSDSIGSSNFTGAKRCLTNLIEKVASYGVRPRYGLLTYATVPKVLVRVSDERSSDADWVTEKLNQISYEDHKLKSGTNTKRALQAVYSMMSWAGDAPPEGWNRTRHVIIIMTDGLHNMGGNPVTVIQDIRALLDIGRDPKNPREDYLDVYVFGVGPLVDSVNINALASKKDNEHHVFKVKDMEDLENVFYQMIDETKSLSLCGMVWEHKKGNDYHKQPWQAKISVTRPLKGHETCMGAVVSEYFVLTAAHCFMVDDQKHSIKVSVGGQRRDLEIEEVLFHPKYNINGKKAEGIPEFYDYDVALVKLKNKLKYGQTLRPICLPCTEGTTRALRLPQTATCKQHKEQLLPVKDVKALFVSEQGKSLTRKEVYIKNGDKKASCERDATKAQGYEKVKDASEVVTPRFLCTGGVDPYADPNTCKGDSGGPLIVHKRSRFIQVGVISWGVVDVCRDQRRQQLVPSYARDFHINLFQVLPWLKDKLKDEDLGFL

What is called IC50 is the midpoint of a concentration-inhibition curve.

This assay addresses Complement factor B (Mus musculus, UniProt P04186). Briefly: Inhibition of serine protease factor B in 50% mouse serum assessed as reduction in C3b deposition pre-incubated for 15 mins before activated zymosan A stimulation for 50 mins by ELISA. Type of assay: cell-free.
`Cc1cc(C)c2[nH]ccc2c1CN1CCCCC1c1ccc(C(=O)O)cc1` (stereo not given): the IC50 was found to be 2280 nM.

On to `COc1cc(C)c2[nH]ccc2c1CN1CC[C@H](OC)C[C@H]1c1ccc(C(=O)O)cc1`, for which the IC50 came out at 150 nM. The value for `CO[C@H]1CCN(Cc2c(C)cc(C)c3[nH]ccc23)[C@H](c2ccc(C(=O)O)cc2)C1` was 160 nM.

As for `CCO[C@H]1CCN(Cc2c(C)cc(C)c3[nH]ccc23)[C@H](c2ccc(C(=O)O)cc2)C1`, the IC50 was 120 nM. As for `CCO[C@H]1CCN(Cc2c(C3CC3)cc(C)c3[nH]ccc23)[C@H](c2ccc(C(=O)O)cc2)C1`, the figure is 80 nM.
